In one assay the target is CRBN (Homo sapiens, UniProt Q96SW2). In words: CRBN binding affinity by HTRF (CEREBLON BINDING kit). Conditions: for Inhibition Rate at 0.5 µM (%) / Inhibition Rate at 2 µM (%): CRBN binding, HTRF; for Inhibition Rate at 0.5 µM (%): compound at 0.5 µM; for Inhibition Rate at 2 µM (%): compound at 2 µM; for pIC50: read-out: HTRF IC50, human Cereblon WT GST-tagged protein, 3 hours at room temperature.

Protein sequences, listed by entry. Tags and fused reporters are not part of them.
UniProt Q96SW2, whole entry: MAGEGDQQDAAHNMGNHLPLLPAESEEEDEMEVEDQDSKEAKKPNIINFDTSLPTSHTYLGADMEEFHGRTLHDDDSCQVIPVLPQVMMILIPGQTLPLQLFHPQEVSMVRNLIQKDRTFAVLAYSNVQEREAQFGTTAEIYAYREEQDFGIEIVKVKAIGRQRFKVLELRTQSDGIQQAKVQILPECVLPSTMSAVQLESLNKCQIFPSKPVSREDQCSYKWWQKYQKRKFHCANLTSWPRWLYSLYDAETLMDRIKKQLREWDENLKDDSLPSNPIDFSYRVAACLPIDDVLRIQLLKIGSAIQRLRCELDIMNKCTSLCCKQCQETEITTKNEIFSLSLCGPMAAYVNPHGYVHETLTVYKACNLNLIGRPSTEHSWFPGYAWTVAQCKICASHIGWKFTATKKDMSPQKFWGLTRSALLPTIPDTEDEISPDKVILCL
UniProt Q13422, whole entry: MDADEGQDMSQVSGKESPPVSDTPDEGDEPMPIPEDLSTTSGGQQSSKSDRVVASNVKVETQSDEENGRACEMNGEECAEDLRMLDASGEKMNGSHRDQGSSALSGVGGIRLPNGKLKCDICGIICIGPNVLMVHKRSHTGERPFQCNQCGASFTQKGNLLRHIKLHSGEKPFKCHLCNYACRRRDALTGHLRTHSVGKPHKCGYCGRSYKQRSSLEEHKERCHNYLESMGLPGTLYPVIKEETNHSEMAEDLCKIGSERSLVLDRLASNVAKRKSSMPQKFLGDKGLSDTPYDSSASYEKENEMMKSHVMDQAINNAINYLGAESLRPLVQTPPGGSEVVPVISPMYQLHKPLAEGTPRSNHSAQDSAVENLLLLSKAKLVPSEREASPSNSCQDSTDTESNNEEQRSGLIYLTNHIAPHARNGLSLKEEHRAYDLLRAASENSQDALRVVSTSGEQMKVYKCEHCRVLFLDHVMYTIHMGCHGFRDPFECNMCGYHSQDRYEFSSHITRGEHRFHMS
UniProt P48729, whole entry: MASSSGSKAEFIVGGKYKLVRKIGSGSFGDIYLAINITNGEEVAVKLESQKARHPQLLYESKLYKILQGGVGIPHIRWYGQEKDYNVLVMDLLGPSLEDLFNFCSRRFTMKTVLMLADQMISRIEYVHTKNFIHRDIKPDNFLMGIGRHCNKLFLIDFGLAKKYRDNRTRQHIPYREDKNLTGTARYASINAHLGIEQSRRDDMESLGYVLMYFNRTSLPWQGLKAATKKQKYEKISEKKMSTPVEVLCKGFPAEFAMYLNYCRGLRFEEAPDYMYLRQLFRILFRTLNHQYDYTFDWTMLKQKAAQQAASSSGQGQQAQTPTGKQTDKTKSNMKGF
UniProt Q9UKT9, whole entry: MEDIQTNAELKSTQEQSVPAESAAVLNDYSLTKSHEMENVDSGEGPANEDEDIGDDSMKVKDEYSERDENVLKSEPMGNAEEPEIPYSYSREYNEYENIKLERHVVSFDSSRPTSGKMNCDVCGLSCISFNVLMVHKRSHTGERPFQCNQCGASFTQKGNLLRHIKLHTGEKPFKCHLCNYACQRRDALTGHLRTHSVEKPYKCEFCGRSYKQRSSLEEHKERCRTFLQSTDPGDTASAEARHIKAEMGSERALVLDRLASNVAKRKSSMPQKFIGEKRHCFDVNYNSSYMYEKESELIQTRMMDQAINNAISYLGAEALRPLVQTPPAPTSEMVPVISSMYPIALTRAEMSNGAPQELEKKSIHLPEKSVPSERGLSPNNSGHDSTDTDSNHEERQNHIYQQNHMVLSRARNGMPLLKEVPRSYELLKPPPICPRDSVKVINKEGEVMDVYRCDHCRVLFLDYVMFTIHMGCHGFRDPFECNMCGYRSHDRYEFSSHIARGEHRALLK
UniProt Q9UKS7, whole entry: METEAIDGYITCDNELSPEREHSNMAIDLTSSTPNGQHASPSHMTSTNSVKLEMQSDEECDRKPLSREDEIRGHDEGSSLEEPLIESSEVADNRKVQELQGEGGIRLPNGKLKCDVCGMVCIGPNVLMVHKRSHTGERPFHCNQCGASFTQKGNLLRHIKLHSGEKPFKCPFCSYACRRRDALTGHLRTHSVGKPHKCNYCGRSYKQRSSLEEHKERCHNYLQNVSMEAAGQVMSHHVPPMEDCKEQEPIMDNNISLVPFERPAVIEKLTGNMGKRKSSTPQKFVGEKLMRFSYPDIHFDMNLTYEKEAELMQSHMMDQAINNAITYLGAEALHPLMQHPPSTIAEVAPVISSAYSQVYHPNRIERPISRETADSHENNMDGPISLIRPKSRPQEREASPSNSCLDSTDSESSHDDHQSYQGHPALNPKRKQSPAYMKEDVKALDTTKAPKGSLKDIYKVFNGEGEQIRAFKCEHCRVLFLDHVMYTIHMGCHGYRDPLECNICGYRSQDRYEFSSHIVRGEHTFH
UniProt P15170, whole entry: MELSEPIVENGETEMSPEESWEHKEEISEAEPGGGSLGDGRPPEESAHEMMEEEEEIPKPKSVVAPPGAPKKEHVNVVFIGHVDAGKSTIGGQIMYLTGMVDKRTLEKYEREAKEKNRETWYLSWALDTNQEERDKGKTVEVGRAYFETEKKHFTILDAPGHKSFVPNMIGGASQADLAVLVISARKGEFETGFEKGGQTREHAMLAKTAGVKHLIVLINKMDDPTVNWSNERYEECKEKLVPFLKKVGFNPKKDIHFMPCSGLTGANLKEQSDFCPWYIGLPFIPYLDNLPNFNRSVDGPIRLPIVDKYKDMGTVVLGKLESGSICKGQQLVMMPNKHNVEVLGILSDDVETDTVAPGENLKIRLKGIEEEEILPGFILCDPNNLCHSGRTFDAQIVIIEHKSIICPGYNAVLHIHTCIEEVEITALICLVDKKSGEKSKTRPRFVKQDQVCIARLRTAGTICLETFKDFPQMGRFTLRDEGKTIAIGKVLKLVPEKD
UniProt P30291, whole entry: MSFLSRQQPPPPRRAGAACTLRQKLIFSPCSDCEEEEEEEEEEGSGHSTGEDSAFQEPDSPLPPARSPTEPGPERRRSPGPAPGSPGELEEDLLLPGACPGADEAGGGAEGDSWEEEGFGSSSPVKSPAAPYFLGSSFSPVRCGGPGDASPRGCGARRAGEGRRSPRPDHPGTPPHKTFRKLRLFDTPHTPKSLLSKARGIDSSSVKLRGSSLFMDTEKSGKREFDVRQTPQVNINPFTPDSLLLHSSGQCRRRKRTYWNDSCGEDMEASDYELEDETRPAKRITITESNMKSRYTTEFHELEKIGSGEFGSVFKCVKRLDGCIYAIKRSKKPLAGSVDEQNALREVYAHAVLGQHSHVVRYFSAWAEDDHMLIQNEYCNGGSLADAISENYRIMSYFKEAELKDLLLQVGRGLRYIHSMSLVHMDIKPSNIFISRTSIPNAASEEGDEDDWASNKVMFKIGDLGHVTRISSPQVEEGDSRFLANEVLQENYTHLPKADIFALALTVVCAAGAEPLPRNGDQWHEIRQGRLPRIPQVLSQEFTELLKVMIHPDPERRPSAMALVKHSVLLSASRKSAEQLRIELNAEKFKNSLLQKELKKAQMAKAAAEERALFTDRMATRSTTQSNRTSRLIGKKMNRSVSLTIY
UniProt Q16531, whole entry partner: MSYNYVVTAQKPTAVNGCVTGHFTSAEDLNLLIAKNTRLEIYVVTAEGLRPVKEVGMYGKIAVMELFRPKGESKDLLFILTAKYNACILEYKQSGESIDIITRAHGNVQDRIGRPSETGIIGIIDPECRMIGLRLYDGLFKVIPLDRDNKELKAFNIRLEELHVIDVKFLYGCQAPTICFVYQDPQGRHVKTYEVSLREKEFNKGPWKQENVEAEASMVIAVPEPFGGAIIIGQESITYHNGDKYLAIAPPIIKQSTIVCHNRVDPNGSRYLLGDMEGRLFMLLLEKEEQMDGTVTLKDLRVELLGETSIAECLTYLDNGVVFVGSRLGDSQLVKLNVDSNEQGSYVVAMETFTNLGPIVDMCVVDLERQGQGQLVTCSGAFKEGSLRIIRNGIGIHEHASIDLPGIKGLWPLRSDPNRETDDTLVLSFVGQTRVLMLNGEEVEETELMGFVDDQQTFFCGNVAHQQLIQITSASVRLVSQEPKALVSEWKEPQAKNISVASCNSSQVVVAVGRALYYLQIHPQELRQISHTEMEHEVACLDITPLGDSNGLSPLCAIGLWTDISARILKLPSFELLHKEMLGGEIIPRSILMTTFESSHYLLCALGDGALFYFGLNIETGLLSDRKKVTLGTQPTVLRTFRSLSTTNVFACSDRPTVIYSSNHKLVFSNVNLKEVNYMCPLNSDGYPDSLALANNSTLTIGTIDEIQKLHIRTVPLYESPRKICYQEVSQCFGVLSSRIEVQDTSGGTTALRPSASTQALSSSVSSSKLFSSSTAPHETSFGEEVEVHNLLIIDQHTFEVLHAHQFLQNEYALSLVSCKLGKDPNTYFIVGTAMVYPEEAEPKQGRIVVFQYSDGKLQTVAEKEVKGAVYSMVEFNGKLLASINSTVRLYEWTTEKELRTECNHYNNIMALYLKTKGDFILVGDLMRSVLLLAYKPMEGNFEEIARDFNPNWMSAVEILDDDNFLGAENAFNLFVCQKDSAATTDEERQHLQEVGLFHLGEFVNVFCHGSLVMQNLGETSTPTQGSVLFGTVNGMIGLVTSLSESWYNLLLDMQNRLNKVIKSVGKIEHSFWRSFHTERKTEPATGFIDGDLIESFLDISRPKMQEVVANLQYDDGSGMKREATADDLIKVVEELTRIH

For assay [1], the system named is Human myeloid monocytic leukemia cell (MV-4-11). Description: Tumor cell proliferation inhibition (cell viability assay). Particulars: MV-4-11 cells, 96 hours.
The next assay relates to IL-2. In words: Inflammatory cytokine release from PBMCs induced by PHA (flow cytometry CBA). Particulars: PBMCs, PHA 1 µg/mL, 24 h.
The subject of a further assay is TNF-α. The assay is described as above. Particulars: PHA 1 µg/mL, 24 h.
The subject of a further assay is GM-CSF. In words: Inflammatory cytokine release from PBMCs induced by PMA + Ionomycin (flow cytometry CBA). Particulars: 24 h.
Another assay addresses IKZF1 (Homo sapiens, UniProt Q13422+Q96SW2). Description: Western blot assay of substrate protein degradation in hPBMCs. Particulars: 24 hours treatment, compounds at 50 nM and 500 nM (concentration behind the class not stated).
Another assay addresses CK1α (Homo sapiens, UniProt P48729+Q96SW2). Described as above. Conditions: 24 hours treatment, compounds at 50 nM and 500 nM (concentration behind the class not stated).
In a further assay the target is IKZF3 (Homo sapiens, UniProt Q96SW2+Q9UKT9). The assay is described as above. Particulars: 24 hours treatment, compounds at 50 nM and 500 nM (concentration behind the class not stated).
Another assay has as its target IKZF2 (Homo sapiens, UniProt Q96SW2+Q9UKS7). Described as above. Particulars: 24 hours treatment, compounds at 50 nM and 500 nM (concentration behind the class not stated).
The target of the next assay is GSPT1 (Homo sapiens, UniProt P15170+Q96SW2). The description is as above. Particulars: 24 hours treatment, compounds at 50 nM and 500 nM (concentration behind the class not stated).
In a further assay the target is WEE1 (Homo sapiens, UniProt P30291+Q96SW2). Described as above. Particulars: 24 hours treatment, compounds at 50 nM and 500 nM (concentration behind the class not stated).
Assay [2] has as its system Human multiple myeloma cell (MM.1S). Description: Tumor cell proliferation inhibition (cell viability assay). Particulars: MM.1S cells, 96 hours.
Assay [3] concerns Human colon cancer cell (SW620). The description is as above. Conditions: SW620 cells, 96 hours.
Assay [4] has as its system Human acute T lymphocytic leukemia cell (Molt4). The assay is described as above. Particulars: Molt4 cells, 96 hours.
Assay [5] has as its system Human mantle cell lymphoma cell line (JEKO-1). Described as above. Particulars: JEKO-1 cells, 96 hours.

pIC50: −log10 of the molar value.

Here are results for six compounds from patent EP4834897A1, “COMPOUNDS WITH TWO AZAHETEROCYCLES SUBSTITUTED ISOINDOLINONE SKELETON AND USES THEREOF” (dated 2026).

Take `CC1(C)CCC(C(=O)N2CCN(C3CCN(Cc4ccc5c(c4)C(=O)N(C4CCC(=O)NC4=O)C5)CC3(F)F)CC2)=C(c2ccc(Cl)cc2)C1` (stereo not shown): the “Inhibition Rate at 0.5 µM (%)” value at CRBN is given as “a6 (60% < a6 ≤ 70%)”. Also, the “Inhibition Rate at 2 µM (%)” value on CRBN was “a8 (80% < a8 ≤100%)”. Also, in assay [1], the “Inhibition Rate at 10 nM (%)” value was 1a7 (50% ≤ 1a7 < 60%). The “Inhibition Rate at 500 nM (%)” value in assay [1] is 1a7 (50% ≤ 1a7 < 60%). The entries for the “Inhibition Rate (%) IL-2” value with IL-2 (0.1 µM) and in the assay with IL-2 (1 µM) were “IV11 (60% < IV11 ≤ 70%)” and “IV1 1”, respectively. Also, the “Inhibition Rate (%) TNF-α” value in the assay with TNF-α (0.1 µM) is on record as “IV9 (40% < IV9 ≤ 50%)”; in the assay on TNF-α (1 µM) it was “IV6 (10% < IV6 ≤ 20%)”. In addition, the “Inhibition Rate (%) GM-CSF” value is recorded as “IV10 (50% < IV 10 ≤ 60%)” in the assay with GM-CSF (0.1 µM) and “IV8 (30% < IV8 ≤ 40%)” in the assay on GM-CSF (1 µM).
For the compound `O=C1CCC(N2Cc3cc(C(=O)N4CCC(N5CCN(c6noc7cc(F)ccc67)CC5)C(F)(F)C4)c(F)cc3C2=O)C(=O)N1` (stereo not shown), the “substrate protein remaining % (IKZF 1)” value on IKZF1 is reported as “B (80%< substrate protein remaining %≤ 100%)”. On CK1α, the “substrate protein remaining % (CK1a)” value is recorded as “A (0% ≤ substrate protein remaining % ≤ 80%)”. At IKZF3, the “substrate protein remaining % (IKZF3)” value was “B (80%< substrate protein remaining %≤ 100%)”. In addition, on IKZF2, the “substrate protein remaining % (IKZF2)” value is given as “B (80%< substrate protein remaining %≤ 100%)”. Further, at GSPT1, the “substrate protein remaining % (GSPT1)” value is given as “A (0% ≤ substrate protein remaining % ≤ 80%)”. Besides, the “substrate protein remaining % (WEE1)” value on WEE1 is “A (0% ≤ substrate protein remaining % ≤ 80%)”. Besides, on CRBN, the “Inhibition Rate at 0.5 µM (%)” value is “a3 (30% < a3 ≤ 40%)”. Further, the “Inhibition Rate at 2 µM (%)” value on CRBN was “a7 (70% < a7 ≤80%)”. For the same compound, the “Inhibition Rate at 10 nM (%)” value is recorded as 1a8 (60% ≤ 1a8 < 70%) in assay [1]; 1b4 (20% ≤ 1b4 < 32%) in assay [2]; 1d2 (5% ≤ 1d2 < 10%) in assay [3]; 1c6 (30% ≤ 1c6 < 40%) in [4]; 1g3 (10% ≤ 1g3 < 20%) in assay [5]. The “Inhibition Rate at 500 nM (%)” value in assay [1] is on record as 1a10 (80% ≤ 1a10 < 100%); in assay [2], 1b10 (80% ≤ 1b10 ≤ 100%); in assay [3], 1d8 (60% ≤ 1d8 < 70%); in [4], 1c11 (80% ≤ 1c11 ≤ 100%); in assay [5], 1g6 (40% ≤ 1g6 < 50%).
As for `O=C1CCC(N2Cc3cc(CN4CCC(N5CC=C(c6cccc(Cl)c6Cl)CC5)C(F)(F)C4)ccc3C2=O)C(=O)N1` (stereo not shown), the “substrate protein remaining % (IKZF 1)” value at IKZF1 is on record as “B (80%< substrate protein remaining %≤ 100%)”. The “substrate protein remaining % (CK1a)” value on CK1α is recorded as “B (80%< substrate protein remaining %≤ 100%)”. Besides, the “substrate protein remaining % (IKZF3)” value on IKZF3 is on record as “B (80%< substrate protein remaining %≤ 100%)”. In addition, the “substrate protein remaining % (IKZF2)” value at IKZF2 is “B (80%< substrate protein remaining %≤ 100%)”. The “substrate protein remaining % (GSPT1)” value on GSPT1 is on record as “A (0% ≤ substrate protein remaining % ≤ 80%)”. In addition, the “substrate protein remaining % (WEE1)” value at WEE1 is reported as “B (80%< substrate protein remaining %≤ 100%)”. For the same compound, the pIC50 at CRBN was 6.30 to 7.00. In addition, the “Inhibition Rate at 10 nM (%)” value is listed as 1a5 (30% ≤ 1a5 ≤ 40%) in assay [1]; 1b7 (50% ≤ 1b7 < 60%) in assay [2]; 1d6 (40% ≤ 1d6 < 50%) in assay [3]; 1c6 (30% ≤ 1c6 < 40%) in assay [4]; 1g5 (30% ≤ 1g5 < 40%) in assay [5]. The “Inhibition Rate at 500 nM (%)” value in assay [1] was 1a10 (80% ≤ 1a10 < 100%); in assay [2], 1b10 (80% ≤ 1b10 ≤ 100%); in assay [3], 1d7 (50% ≤ 1d7 < 60%); in assay [4] it was 1c11 (80% ≤ 1c11 ≤ 100%); in assay [5], 1g6 (40% ≤ 1g6 < 50%).
In the case of `O=C1CCC(N2Cc3cc(C(=O)N4CCC(N5CCN(c6cccc(Cl)c6Cl)CC5)C(F)(F)C4)c(F)cc3C2=O)C(=O)N1` (stereo not shown), at IKZF1, the “substrate protein remaining % (IKZF 1)” value is listed as “B (80%< substrate protein remaining %≤ 100%)”. In addition, the “substrate protein remaining % (CK1a)” value at CK1α is on record as “B (80%< substrate protein remaining %≤ 100%)”. In addition, the “substrate protein remaining % (IKZF3)” value on IKZF3 is on record as “B (80%< substrate protein remaining %≤ 100%)”. The “substrate protein remaining % (IKZF2)” value at IKZF2 is “A (0% ≤ substrate protein remaining % ≤ 80%)”. For the same compound, the “substrate protein remaining % (GSPT1)” value on GSPT1 is “A (0% ≤ substrate protein remaining % ≤ 80%)”. Besides, the “substrate protein remaining % (WEE1)” value on WEE1 is “A (0% ≤ substrate protein remaining % ≤ 80%)”. Besides, at CRBN, the “Inhibition Rate at 0.5 µM (%)” value was “a2 (20% < a2 ≤ 30%)” and the “Inhibition Rate at 2 µM (%)” value is given as “a5 (53% < a5 ≤ 60%)”. Besides, in [1], the “Inhibition Rate at 10 nM (%)” value is reported as 1a5 (30% ≤ 1a5 ≤ 40%) and the “Inhibition Rate at 500 nM (%)” value is listed as 1a9 (70% ≤ 1a9 < 80%). Moreover, in [4], the “Inhibition Rate at 10 nM (%)” value is reported as 1c7 (40% ≤ 1c7 < 50%) and the “Inhibition Rate at 500 nM (%)” value is given as 1c11 (80% ≤ 1c11 ≤ 100%). Besides, in assay [5], the “Inhibition Rate at 10 nM (%)” value was 1g6 (40% ≤ 1g6 < 50%) and the “Inhibition Rate at 500 nM (%)” value is recorded as 1g7 (50% ≤ 1g7 < 60%).
In the case of `O=C1CCC(N2Cc3cc(CN4CCC(N5CCN(C(c6ccccc6)c6ccccn6)CC5)C(F)(F)C4)c(F)cc3C2=O)C(=O)N1` (stereo not shown), the “substrate protein remaining % (IKZF 1)” value at IKZF1 is recorded as “A (0% ≤ substrate protein remaining % ≤ 80%)”. Besides, the “substrate protein remaining % (CK1a)” value on CK1α is “A (0% ≤ substrate protein remaining % ≤ 80%)”. On IKZF3, the “substrate protein remaining % (IKZF3)” value is reported as “A (0% ≤ substrate protein remaining % ≤ 80%)”. The “substrate protein remaining % (IKZF2)” value at IKZF2 was “A (0% ≤ substrate protein remaining % ≤ 80%)”. In addition, at GSPT1, the “substrate protein remaining % (GSPT1)” value was “A (0% ≤ substrate protein remaining % ≤ 80%)”. Also, the “substrate protein remaining % (WEE1)” value on WEE1 is “A (0% ≤ substrate protein remaining % ≤ 80%)”. Moreover, on CRBN, the “Inhibition Rate at 0.5 µM (%)” value is given as “a5 (53% < a5 ≤ 60%)”. Also, the “Inhibition Rate at 2 µM (%)” value at CRBN is recorded as “a7 (70% < a7 ≤80%)”. The “Inhibition Rate at 10 nM (%)” value in assay [1] is recorded as 1a4 (20% ≤ 1a4 < 30%); in assay [2] it was 1b4 (20% ≤ 1b4 < 32%); in assay [3], 1d4 (20% ≤ 1d4 < 30%); in [4], 1c4 (10% ≤ 1c4 < 20%); in assay [5] it was 1g2 (5% ≤ 1g2 < 10%). Further, the “Inhibition Rate at 500 nM (%)” value in [1] is listed as 1a10 (80% ≤ 1a10 < 100%); in assay [2], 1b10 (80% ≤ 1b10 ≤ 100%); in assay [3], 1d9 (70% ≤ 1d9 < 80%); in assay [4], 1c11 (80% ≤ 1c11 ≤ 100%); in [5], 1g6 (40% ≤ 1g6 < 50%).
With `O=C1CCC(N2Cc3cc(CN4CCC(N5CCN(c6cccc(Cl)c6Cl)CC5)C(F)(F)C4)ccc3C2=O)C(=O)N1` (stereo not shown), the “substrate protein remaining % (IKZF 1)” value at IKZF1 is “A (0% ≤ substrate protein remaining % ≤ 80%)”. Also, at CK1α, the “substrate protein remaining % (CK1a)” value was “B (80%< substrate protein remaining %≤ 100%)”. For the same compound, the “substrate protein remaining % (IKZF3)” value at IKZF3 was “A (0% ≤ substrate protein remaining % ≤ 80%)”. The “substrate protein remaining % (IKZF2)” value on IKZF2 is “A (0% ≤ substrate protein remaining % ≤ 80%)”. The “substrate protein remaining % (GSPT1)” value on GSPT1 is on record as “A (0% ≤ substrate protein remaining % ≤ 80%)”. On WEE1, the “substrate protein remaining % (WEE1)” value is listed as “A (0% ≤ substrate protein remaining % ≤ 80%)”. Also, the pIC50 on CRBN is 6.30 to 7.00. Also, the “Inhibition Rate at 10 nM (%)” value in assay [1] is reported as 1a6 (40% < 1a6 < 50%); in assay [2], 1b7 (50% ≤ 1b7 < 60%); in assay [3], 1d1 (0 < 1d1 < 5%); in assay [4] it was 1c5 (20% ≤ 1c5 < 30%); in [5], 1g2 (5% ≤ 1g2 < 10%). The “Inhibition Rate at 500 nM (%)” value in assay [1] is given as 1a10 (80% ≤ 1a10 < 100%); in [2] it was 1b10 (80% ≤ 1b10 ≤ 100%); in assay [3], 1d6 (40% ≤ 1d6 < 50%); in assay [4], 1c11 (80% ≤ 1c11 ≤ 100%); in assay [5], 1g6 (40% ≤ 1g6 < 50%).
